This is an account of results in EP4825857A1, “TRICYCLIC FUSED HETEROCYCLIC PDE3/4 DUAL INHIBITOR, AND PREPARATION AND USE THEREFOR” (dated 2026).

The chains behind the UniProt entries cited, without tags or fusion partners. A line that says so, or that is headed by a name, gives the form on record, which may keep a tag or linker. Residues count along the entry.
UniProt O00408, 1-920 with tags or gaps: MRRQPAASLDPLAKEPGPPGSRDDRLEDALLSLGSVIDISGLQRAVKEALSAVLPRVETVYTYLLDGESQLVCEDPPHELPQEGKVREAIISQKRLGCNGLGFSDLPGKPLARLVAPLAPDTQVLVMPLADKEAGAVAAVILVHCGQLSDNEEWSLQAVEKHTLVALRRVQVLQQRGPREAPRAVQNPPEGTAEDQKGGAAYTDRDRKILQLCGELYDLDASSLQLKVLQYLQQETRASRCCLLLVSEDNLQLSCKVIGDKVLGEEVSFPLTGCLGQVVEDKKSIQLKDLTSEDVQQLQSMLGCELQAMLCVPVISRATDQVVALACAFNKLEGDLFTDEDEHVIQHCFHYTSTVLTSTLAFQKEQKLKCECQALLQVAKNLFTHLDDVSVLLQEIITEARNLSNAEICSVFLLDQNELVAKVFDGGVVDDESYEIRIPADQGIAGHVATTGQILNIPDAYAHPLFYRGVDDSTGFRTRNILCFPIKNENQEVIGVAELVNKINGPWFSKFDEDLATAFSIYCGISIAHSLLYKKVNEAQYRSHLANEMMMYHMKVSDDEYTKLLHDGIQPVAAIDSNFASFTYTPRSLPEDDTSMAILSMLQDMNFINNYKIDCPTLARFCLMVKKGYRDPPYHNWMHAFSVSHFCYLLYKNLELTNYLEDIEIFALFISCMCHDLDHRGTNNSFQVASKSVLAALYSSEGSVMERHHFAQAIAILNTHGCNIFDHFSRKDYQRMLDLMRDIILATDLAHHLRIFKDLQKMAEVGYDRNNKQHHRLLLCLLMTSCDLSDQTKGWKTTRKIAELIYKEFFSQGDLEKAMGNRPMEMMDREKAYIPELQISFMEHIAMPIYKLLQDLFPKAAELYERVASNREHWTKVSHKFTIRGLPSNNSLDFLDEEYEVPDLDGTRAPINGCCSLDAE
UniProt Q01064, whole entry: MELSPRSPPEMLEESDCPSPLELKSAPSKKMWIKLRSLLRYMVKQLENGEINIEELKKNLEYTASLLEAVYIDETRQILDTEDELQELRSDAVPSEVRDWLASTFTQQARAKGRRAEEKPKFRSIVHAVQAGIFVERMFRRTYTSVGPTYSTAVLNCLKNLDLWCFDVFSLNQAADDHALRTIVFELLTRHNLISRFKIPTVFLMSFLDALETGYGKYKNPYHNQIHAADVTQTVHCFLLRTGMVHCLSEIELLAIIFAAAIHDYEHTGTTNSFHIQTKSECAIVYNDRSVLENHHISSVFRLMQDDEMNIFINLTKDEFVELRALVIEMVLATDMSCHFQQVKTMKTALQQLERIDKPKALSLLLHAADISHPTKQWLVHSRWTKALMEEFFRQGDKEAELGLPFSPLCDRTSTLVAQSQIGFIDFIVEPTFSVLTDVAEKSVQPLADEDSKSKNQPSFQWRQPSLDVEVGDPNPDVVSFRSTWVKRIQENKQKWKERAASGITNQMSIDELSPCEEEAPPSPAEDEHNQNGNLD
UniProt P51160, whole entry: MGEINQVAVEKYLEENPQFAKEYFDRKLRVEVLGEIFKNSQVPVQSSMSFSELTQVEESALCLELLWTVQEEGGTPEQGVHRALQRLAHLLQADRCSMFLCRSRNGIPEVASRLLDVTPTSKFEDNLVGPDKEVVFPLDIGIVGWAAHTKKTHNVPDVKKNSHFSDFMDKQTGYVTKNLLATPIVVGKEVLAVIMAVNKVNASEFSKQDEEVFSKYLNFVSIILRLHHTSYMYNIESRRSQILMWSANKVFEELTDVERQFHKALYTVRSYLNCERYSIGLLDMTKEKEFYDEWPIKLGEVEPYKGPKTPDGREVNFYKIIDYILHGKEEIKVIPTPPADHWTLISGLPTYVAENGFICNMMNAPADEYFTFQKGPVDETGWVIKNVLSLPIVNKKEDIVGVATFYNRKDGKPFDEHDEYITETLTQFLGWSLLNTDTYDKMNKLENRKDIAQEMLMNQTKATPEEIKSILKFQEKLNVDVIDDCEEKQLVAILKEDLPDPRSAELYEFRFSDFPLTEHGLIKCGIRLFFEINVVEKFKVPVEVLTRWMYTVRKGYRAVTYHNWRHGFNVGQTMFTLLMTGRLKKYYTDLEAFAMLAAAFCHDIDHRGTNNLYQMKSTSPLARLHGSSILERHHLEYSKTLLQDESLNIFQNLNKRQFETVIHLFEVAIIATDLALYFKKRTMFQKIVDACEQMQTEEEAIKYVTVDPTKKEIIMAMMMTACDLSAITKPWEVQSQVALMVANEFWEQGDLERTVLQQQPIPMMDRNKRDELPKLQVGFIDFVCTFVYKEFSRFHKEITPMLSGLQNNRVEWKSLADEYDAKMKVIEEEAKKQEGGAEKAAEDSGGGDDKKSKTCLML
UniProt Q14123, whole entry: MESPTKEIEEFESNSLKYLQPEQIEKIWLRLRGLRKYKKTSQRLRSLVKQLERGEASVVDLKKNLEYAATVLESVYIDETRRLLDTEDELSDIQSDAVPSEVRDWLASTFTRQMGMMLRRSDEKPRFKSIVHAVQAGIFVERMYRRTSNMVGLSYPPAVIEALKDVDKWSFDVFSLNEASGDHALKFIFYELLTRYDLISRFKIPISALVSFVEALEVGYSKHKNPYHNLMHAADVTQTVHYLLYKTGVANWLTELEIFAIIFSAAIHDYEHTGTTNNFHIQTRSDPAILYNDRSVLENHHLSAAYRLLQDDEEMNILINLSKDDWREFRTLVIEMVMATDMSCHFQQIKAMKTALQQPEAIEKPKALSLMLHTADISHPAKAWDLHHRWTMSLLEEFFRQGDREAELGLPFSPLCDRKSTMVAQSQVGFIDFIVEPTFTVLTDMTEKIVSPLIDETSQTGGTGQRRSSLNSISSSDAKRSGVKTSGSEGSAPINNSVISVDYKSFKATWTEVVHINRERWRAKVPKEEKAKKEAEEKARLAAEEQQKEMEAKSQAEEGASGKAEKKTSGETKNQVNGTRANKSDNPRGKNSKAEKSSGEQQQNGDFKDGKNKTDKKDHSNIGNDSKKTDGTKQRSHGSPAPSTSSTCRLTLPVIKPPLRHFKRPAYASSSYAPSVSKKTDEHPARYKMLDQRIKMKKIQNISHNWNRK
UniProt O60658, whole entry: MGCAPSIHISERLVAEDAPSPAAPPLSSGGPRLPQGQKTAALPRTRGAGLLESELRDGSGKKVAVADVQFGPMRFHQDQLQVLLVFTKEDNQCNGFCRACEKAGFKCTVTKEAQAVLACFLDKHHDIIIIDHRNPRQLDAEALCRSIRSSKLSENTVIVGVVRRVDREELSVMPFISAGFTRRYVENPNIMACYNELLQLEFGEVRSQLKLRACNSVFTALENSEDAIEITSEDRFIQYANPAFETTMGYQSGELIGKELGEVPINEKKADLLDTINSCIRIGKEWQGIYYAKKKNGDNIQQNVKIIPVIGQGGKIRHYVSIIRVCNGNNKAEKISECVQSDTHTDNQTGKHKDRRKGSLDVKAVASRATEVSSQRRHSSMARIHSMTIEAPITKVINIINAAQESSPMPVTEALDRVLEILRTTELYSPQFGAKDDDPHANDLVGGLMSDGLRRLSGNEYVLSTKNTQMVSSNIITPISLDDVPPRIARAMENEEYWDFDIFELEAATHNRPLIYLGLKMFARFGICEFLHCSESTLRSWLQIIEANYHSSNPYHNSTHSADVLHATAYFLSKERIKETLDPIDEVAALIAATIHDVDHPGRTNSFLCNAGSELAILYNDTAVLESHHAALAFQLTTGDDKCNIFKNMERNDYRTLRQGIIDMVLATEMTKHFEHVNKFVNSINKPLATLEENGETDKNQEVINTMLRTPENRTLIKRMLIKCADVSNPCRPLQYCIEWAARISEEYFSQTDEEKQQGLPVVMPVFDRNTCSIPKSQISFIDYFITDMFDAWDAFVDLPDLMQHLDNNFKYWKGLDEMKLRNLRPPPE
UniProt P54750, whole entry: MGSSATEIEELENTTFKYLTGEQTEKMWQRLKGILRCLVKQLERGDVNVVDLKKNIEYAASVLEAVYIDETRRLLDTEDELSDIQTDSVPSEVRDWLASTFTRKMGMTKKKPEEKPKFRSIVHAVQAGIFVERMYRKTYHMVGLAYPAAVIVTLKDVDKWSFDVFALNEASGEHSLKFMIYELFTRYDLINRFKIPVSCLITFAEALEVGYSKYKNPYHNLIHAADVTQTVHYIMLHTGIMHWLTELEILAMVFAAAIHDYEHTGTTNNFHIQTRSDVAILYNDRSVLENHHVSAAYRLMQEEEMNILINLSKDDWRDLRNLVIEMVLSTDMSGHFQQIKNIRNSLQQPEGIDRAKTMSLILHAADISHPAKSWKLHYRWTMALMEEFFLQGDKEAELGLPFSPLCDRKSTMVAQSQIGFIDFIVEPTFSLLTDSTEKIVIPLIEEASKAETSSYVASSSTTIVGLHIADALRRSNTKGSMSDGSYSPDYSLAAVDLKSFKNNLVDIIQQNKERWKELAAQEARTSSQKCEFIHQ
UniProt P27815, 1-647 with tags or gaps: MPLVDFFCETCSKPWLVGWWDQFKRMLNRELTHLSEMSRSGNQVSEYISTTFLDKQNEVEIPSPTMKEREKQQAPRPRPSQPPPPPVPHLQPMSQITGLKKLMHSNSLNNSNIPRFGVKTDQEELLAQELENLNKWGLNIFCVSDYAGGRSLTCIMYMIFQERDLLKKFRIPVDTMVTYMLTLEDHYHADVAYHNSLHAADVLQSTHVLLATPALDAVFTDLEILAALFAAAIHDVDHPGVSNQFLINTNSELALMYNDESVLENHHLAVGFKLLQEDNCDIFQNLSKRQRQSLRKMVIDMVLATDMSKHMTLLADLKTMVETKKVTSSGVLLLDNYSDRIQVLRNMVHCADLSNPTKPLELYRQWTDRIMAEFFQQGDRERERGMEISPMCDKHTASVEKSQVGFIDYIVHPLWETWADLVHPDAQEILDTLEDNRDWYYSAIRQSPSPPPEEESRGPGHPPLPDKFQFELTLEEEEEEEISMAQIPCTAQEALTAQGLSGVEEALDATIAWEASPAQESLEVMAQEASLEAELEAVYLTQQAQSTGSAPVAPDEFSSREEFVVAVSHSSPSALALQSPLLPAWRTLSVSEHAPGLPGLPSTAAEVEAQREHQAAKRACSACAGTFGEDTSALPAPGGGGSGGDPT
UniProt Q9HCR9, whole entry: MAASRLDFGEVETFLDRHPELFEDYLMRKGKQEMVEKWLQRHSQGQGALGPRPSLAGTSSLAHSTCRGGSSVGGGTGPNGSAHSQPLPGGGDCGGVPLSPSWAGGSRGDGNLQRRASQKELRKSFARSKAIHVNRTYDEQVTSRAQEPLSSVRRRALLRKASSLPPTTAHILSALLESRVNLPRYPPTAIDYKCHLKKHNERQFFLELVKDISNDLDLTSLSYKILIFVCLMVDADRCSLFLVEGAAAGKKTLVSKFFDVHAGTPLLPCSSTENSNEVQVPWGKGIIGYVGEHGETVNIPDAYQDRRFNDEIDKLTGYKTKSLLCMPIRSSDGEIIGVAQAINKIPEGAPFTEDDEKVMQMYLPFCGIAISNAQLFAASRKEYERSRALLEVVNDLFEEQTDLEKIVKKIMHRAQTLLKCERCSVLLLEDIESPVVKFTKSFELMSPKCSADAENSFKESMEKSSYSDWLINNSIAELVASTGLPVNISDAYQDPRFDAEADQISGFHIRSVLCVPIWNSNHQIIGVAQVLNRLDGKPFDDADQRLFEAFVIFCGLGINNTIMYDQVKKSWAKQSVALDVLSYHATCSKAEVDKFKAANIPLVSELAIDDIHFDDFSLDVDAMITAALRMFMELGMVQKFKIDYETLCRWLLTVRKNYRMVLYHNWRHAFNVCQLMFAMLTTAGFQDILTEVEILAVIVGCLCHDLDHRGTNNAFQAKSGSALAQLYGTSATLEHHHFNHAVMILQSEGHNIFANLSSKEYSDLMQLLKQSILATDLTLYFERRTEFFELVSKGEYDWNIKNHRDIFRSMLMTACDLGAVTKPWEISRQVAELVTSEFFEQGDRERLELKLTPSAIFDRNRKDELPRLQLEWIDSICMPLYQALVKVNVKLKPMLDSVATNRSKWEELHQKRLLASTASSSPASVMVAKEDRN

As a reminder, the IC50 is the concentration that gives 50% inhibition.

One test has as its target PDE2A1 (Homo sapiens, UniProt O00408). The experiment in a line: PDE enzyme activity inhibition assay II (fluorescence polarization). The note with it: read-out: IC50, nM PDE2A1; FP assay II, Table 5. How it is done: (§1) In a reaction buffer, i.e., 1× IMAP Reaction Buffer containing 0.1% BSA and supplemented with 1 mM DTT, a PDE enzyme solution and a substrate solution (FAM-cyclic AMP/cyclic AMP) were prepared. The positive control was prepared at an initial concentration of 1/10 µM for the PDE assay and was diluted 3-fold, with a 10+0 dose design. Using the acoustic liquid handling technology (Echo 655), 0.05 µL of each compound in 100% DMSO was transferred into a 384-well plate (Corning 4514), followed by centrifugation at 1,000 rpm for 1 min. Then, 2.5 µL of the PDE enzyme solution was transferred into the 384-well reaction plate, followed by centrifugation at 1,000 rpm for 1 min and incubation at 25 °C for 10 min. Subsequently, 2.5 µL of the substrate solution was transferred into the 384-well reaction plate, followed by centrifugation at 1,000 rpm for 1 min and incubation at 25 °C for 60 min. Then, 15 µL of a binding reagent mixture was transferred into the 384-well reaction plate, followed by centrifugation at 1,000 rpm for 1 min and incubation at 25 °C for 60 min. Finally, the FP signal was measured using a BMG PHERAstar FSX plate reader. IC50 values and nonlinear regression curve fitting were obtained using GraphPad Prism software.
(§2) The inhibitory activities of the compounds against PDE enzymes were evaluated using the FP method, with RPL-554 and compound D7 as control compounds. The detailed test method was the same as that described in PDE Enzyme Activity Inhibition Assay I. The structural formulae of RPL-554 and compound D7 are shown below. [drawing 183]
In general terms: Polarisation of emitted light reports the rotation of a fluorescent probe.

For another test, the target named is PDE1B (Homo sapiens, UniProt Q01064). Described as above. The following applies: read-out: IC50, nM PDE1B; FP assay II, Table 5. On the procedure: as §1, §2
A further test concerns the target PDE6C (Homo sapiens, UniProt P51160). The description is as above. The note with it: read-out: IC50, nM PDE6C; FP assay II, Table 5. On the procedure:
as §1, §2

For another test, the target named is PDE1C (Homo sapiens, UniProt Q14123). Described as above. The note with it: read-out: IC50, nM PDE1C; FP assay II, Table 5. On the procedure: as §1, §2
The target of the next test is PDE8A1 (Homo sapiens, UniProt O60658). Described as above. The following applies: read-out: IC50, nM PDE8A1; FP assay II, Table 5. How it is done:
as §1, §2

The next test deals with PDE1A (Homo sapiens, UniProt P54750). The test is described as above. The note with it: read-out: IC50, nM PDE1A; FP assay II, Table 5. How it is done:
as §1, §2

A further test has as its target PDE4A1 (Homo sapiens, UniProt P27815). Described as above. The note with it: read-out: IC50, nM PDE4A1; FP assay II, Table 5. How it is done:
as §1, §2

In another test the target is PDE11A4 (Homo sapiens, UniProt Q9HCR9). The test is described as above. The note with it: read-out: IC50, nM PDE11A4; FP assay II, Table 5. On the procedure: as §1, §2
A further test deals with TNF-α. The experiment in a line: LPS-induced inflammatory model in human monocytes, TNF-α in cell culture supernatant. The following applies: LPS 1 µg/mL, 24 h, 0.78 and 1.56 µmol/L, compared with the model control group. How it is done:
Human monocytes were resuspended in RPMI 1640 complete medium containing 1% fetal bovine serum (FBS) and seeded into 96-well plates at a density of 1 × 10^6 cells/mL, with 100 µL of cell suspension each well. The cells were divided into 14 groups, with six replicates per group, including a normal control group, a model control group, RPL-554 low- and high-dose positive control groups (0.78 and 1.56 µmol/L), Compound 1-2 low- and high-dose groups (0.78 and 1.56 µmol/L), Compound 10-2 low- and high-dose groups (0.78 and 1.56 µmol/L), Compound 12-1 low- and high-dose groups (0.78 and 1.56 µmol/L), and Compound 19 low- and high-dose groups (0.78 and 1.56 µmol/L). The working concentration of LPS in the model control group and compound-treated groups was 1 µg/mL. The cells were further incubated in the absence or presence of LPS and the compounds (5% CO2, 37°C). After 24 h, the cell culture supernatants were collected and centrifuged at 2,000-3,000 × g for 5 min. The precipitate was removed, and the supernatants were collected for determination of TNF-α levels.

`COc1cc2c(cc1OC)-c1cc(=Nc3c(C)cc(C)cc3C)n(CCNC(N)=O)c(=O)n1CC2`: the IC50 at PDE2A1 is 3170 nM; on PDE1B, > 10000 nM; on PDE6C, > 10000 nM; at PDE1C, > 10000 nM; at PDE8A1 it was > 10000 nM; on PDE1A, > 10000 nM. Besides, the IC50 at PDE4A1 was 74.7 nM; on PDE11A4 it was > 10000 nM. Moreover, in the test on TNF-α, the “TNF-α levels in the cell culture supernatants” value is recorded as “showed a decrease with statistic significance”.

As to `COc1cc2c(cc1OC)-c1cc(N(c3c(C)cc(C)cc3C)C(C)CNC(N)=O)nc(=O)n1CC2` (single isomer, unassigned) [Compound 1-2], the half-maximal inhibitory concentration (IC50) on PDE2A1 is 1350 nM; on PDE1B it was 521 nM; on PDE6C, 9330 nM; on PDE1C it was 3790 nM; on PDE8A1, 266 nM; at PDE1A it was 5460 nM. In addition, the half-inhibitory concentration (IC50) on PDE4A1 is 47.8 nM; at PDE11A4, 1640 nM.
